The source of these data is patent US20160250221A1, “INHIBITORS OF FAPP2 AND USES THEREOF” (FONDAZIONE TELETHON, priority 2013, published 2016).

The target of this assay is T1, FAPP2-HIS-SUMO-C-212 (Homo sapiens, UniProt Q96JA3).
T1 construct: the recombinant FAPP2 protein is FAPP2-GLTP-C212 or FAPP2 Full-Length (FL)
T1 sequence (Q96JA3 310-519 limits assumed): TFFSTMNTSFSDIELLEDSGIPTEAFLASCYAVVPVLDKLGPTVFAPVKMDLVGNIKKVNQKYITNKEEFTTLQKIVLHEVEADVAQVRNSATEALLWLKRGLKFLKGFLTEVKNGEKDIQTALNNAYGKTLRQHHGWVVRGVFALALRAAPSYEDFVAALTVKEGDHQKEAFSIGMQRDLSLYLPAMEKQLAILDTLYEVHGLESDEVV
The assay is described as follows: FRET GlcCer transfer assay with FAPP2-C212 (384-well). It counts as biochemical. As for the experimental part:
FAPP2 transfer activity has been evaluated using Fluorescence Resonance Energy Transfer. The FRET assay involves mixing of acceptor vesicles (formed by sonication of 1,2-dioleoyl-sn-glycero-3-phosphocholine (DOPC) suspended in buffer) with donor vesicles containing TopFLUOR-labeled GlcCer (1 mole %) and Di1C18 used as quencher (3 mole %), and recombinant FAPP2 protein (0.5 uM). Recovery of emission intensity at 520 nm (excitation at 485 nm) occurs during FAPP2-mediated transfer of GlcosylCeramide from quenched donor vesicles to unquenched acceptor vesicles. The assay has been performed using FAPP2-GLTP-C212 or FAPP2 Full-Length (FL). In order to conduct the high throughput inhibitor screen, the transfer activity assay was adapted to a microplate format (384 well plate) and read using Synergy Neo HTS Multi-Mode Microplate Reader. First, mixture containing 30 ul of acceptor small unilamellar vesicles, FAPP2 transport protein, and drug in buffer was added to each well in triplicate and read for 1 min to calculate the fluorescence baseline. Then 30 ul donor vesicles were added to each well and read for 15 or 30 mins. Since the increase in fluorescence emission occurs exclusively in presence of FAPP2 transport, the inhibition rate of each compound is evaluated by its ability to decrease the fluorescence emission.

`Cc1ccc(-c2ccc(F)cc2COc2ccc(CCC(=O)O)cc2)cc1` [TUG-891]: the “inhibition of FAPP2 transfer activity” value was determined as 50%.
